Assay results published in PubChem BioAssay AID1508624 (National Center for Advancing Translational Sciences (NCATS), 2021).
The entries are a selection whose mix differs from that of the whole data set. Some results for these compounds are left out of this collection, so the calls shown say nothing about other tests. Inconclusive results are not listed. Activity calls are given as the source filed them. Calls come from the whole dose curve; as a rule, active = well fitted activation curve with a large enough effect; inconclusive = small, poorly fitted or top-dose-only effect, or another doubt; inactive = no such curve, though single readings can be large or run the other way.

assay: Primary qHTS for Identification of Small Molecule Activators of Huntingtin-Antisense Promoter Activity; details: HEK293 HTT-AS promoter firefly luciferase reporter, 24 h, percent change from vehicle, -100% = no light; at 57.5 µM (top of the series); note: nearly all actives have a fitted effect of over 55% in size
Source text: Assay Provider: Russell L. Margolis M.D.
Department Neurology, Johns Hopkins University School of Medicine, Baltimore, MD
Huntington's Disease (HD) is a neurodegenerative disorder caused by a CAG repeat expansion in exon 1 of huntingtin (HTT). While there are currently no disease-modifying treatments for HD, recent efforts have focused on development of nucleotide-based therapeutics to lower HTT expression. As an alternative to siRNA or oligonucleotide methods, we hypothesized that suppression of HTT expression might be accomplished by small molecules that either (1) directly decrease HTT expression by suppressing HTT promoter activity or (2) indirectly decrease HTT expression by increasing the promoter activity of HTT-AS, the gene antisense to HTT that appears to inhibit expression of HTT.
We developed and employed a high throughput screen for modifiers of HTT and HTT-AS promoter activity using luminescent reporter HEK293 cells; of the 52,041 compounds tested, we identified 898 replicable hits. We used a rigorous stepwise approach to assess compound toxicity and the capacity of the compounds to specifically lower huntingtin protein in 5 different cell lines, including HEK293 cells, HD lymphoblastoid cells, mouse primary neurons, HD iPSCs differentiated into cortical-like neurons, and HD hESCs. We found no compounds which were able to lower huntingtin without lowering cell viability in all assays, though the potential efficacy of a few compounds at non-toxic doses could not be excluded.
SEQUENCE No. (1, 2, 3, etc.); […] (e.g., Cells, Incubation, Reagent, etc.); VALUE and DESCRIPTION.
1; Reagent; 4 uL; 2,500 Hek293 luciferase reporter cells per wells
3; Compound; 23 nL; Control inhibitor / compound library
5; Reagent; 2.5 uL; Firefly Luc reagent; Dual-Glo Luciferase Reporter Assay System (Promega)
6; Time; 10 min; room temperature incubation
7; Detection; Luminescence; FLuc
NOTES (numbers refer to sequence above)
1; High-throughput screening, measuring luminescence from a Hek293 luciferase reporter, was performed in 1,536 well white-walled tissue-culture treated plates. 2,500 cells were plated in 4 µL of Opti-MEM per well using a Multidrop Combi Reagent Dispenser (ThermoFisher).
2; Assay plates were cultured for 24 hours.
3; Control inhibitor (PTC124; final concentration of 50 uM) and compound library (at final concentrations of 460 nM - 57.5 uM) were added to the assay plate using the Kalypsis Pintool Robotic System equipped with 1536 pinheads.
4; Cells were then incubated for 24 hours at 37 degrees C prior to luminescence measurements.
5; In all cases, luminescence was measured using the Dual-Glo Luciferase Reporter Assay System (Promega) following the manufacturer's instructions.
6; Room temperature incubation.
7; Luminescence signal was obtained using the PerkinElmer ViewLux plate reader. Results were normalized to vehicle control (0% activity) and zero RLU (-100% activity).

| SMILES | activity change, positive = activation |
| --- | --- |
| CC(C)Oc1ccc(C(=O)NCC2(N(C)C)CCCCC2)cc1 | inactive: 6.26% |
| COc1cc(C(=O)NCC2(N(C)C)CCCCC2)cc(OC)c1OC | inactive: 2.51% |
| Cc1cccc(C(=O)NCC2(N(C)C)CCCCC2)c1 | inactive: 3.52% |
| CC(C)COc1ccc(C(=O)NCC2(N(C)C)CCCCC2)cc1 | inactive: 11.2% |
| COc1cccc(C(=O)NCC2(N3CCOCC3)CCCCC2)c1 | inactive: -6.73% |
| COc1ccc(C(=O)NCC2(N(C)C)CCCCC2)cc1Cl | inactive: 17.6% |
| CCOc1cccc(C(=O)NCC2(N(C)C)CCCCC2)c1 | inactive: -4.22% |
| CCCCOc1ccccc1C(=O)NCC1(N(C)C)CCCCC1 | inactive: -10.1% |
| CN(C)C1(CNC(=O)c2ccccc2[N+](=O)[O-])CCCCC1 | inactive: -11.9% |
| CN(C)C1(CNC(=O)c2ccccc2F)CCCCC1 | inactive: -7.65% |
| CN(C)C1(CNC(=O)c2cccc(Cl)c2)CCCCC1 | inactive: -0.26% |
